Values of other authors in US9226893B2, “Method for storing silica-based material, package produced with the method and use of package for packaging of silica-based products” (DelSiTech Oy, priority 2006, dated 2016).

Conditions: after 2 months of aging (dry-aged, wash-aged or wet-aged), relative to solution

- retained ligand binding ability: less than 15%
Substance: albumin: Human serum albumin entrapped in TEOS-derived silica gels (literature)
